This is an account of results in article PMC6803667 (Scientific Reports, 2019).

Where “and” joins values, the source holds several entries; their conditions need not be identical. Equal values may be shown once.

As usually defined, the Kd is the concentration at which binding is half-saturated. Low values mean tighter binding, high ones weaker binding.

The target of the assay is T1, third WW domain of human NEDD4 (hNEDD4-WW3), unlabelled (human, UniProt P46934 834-878).
T1 construct: not shown: GST, N-terminal, cleaved; His tag, N-terminal, cleaved
As to the kind of experiment: ITC. The note with it: both partners purified.

In the case of EYPPYPPPPYPSG (acetylated N-terminus, amidated C-terminus) [p53bp2 human peptide], the Kd was 4.1 µM and 5.3 µM and 9.1 µM; the dH was -10.9 kcal/mol and -12.7 kcal/mol.
